{
  "source": "paper PMC6139374",
  "about": "(Cell, 2018)",
  "molecules": {"B1": {"name": "PDK1: recombinant GST-tagged human PDK1 protein kinase (protein)", "chain": "MARTTSQLYDAVPIQSSVVLCSCPSPSMVRTQTESSTPPGIPGGSRQGPAMDGTAAEPRPGAGSLQHAQPPPQPRKKRPEDFKFGKILGEGSFSTVVLARELATSREYAIKILEKRHIIKENKVPYVTRERDVMSRLDHPFFVKLYFTFQDDEKLYFGLSYAKNGELLKYIRKIGSFDETCTRFYTAEIVSALEYLHGKGIIHRDLKPENILLNEDMHIQITDFGTAKVLSPESKQARANSFVGTAQYVSPELLTEKSACKSSDLWALGCIIYQLVAGLPPFRAGNEYLIFQKIIKLEYDFPEKFFPKARDLVEKLLVLDATKRLGCEEMEGYGPLKAHPFFESVTWENLHQQTPPKLTAYLPAMSEDDEDCYGNYDNLLSQFGCMQVSSSSSSHSLSASDTGLPQRSGSNIEQYIHDLDSNSFELDLQFSEDEKRLLLEKQAGGNPWHQFVENNLILKMGPVDKRKGLFARRRQLLLTEGPHLYYVDPVNKVLKGEIPWSQELRPEAKNFKTFFVHTPNRTYYLMDPSGNAHKWCRKIQEVWRQRYQSHPDAAVQ", "modifications": "left off: GST, N-terminal, kept"}},
  "target": "non-C-terminally phosphorylated Akt1",
  "experiment": "Fluorescence anisotropy binding of PDK1 to fluorescein-labeled Akt1",
  "parameters": "species or system human",
  "data": [
    {"molecule": "B1", "values": [
      {"measurement": "Kd", "setting": "GST-PDK1, 0.4 μM fluorescein-labeled Akt1", "value": 200, "unit": "nM"},
      {"measurement": "Kd, fold lower than for binding to pSer473 Akt1", "setting": "non-C-terminally phosphorylated vs pSer473 Akt1", "value": "about 2 fold"}
    ]}
  ]
}
